{
  "source": "patent EP2179735A1",
  "about": "“PHARMACEUTICAL COMPOSITION COMBINING L[…] CLONAZEPAM, AND USE THEREOF FOR TREATING […] AND EPILEPTIC SYNDROMES” (WORLD-TRADE IMPORT-EXPORT, WTIE, A.G., priority 2007, dated 2009)",
  "origin": "cited, not measured here",
  "details": "cited from earlier work",
  "data": [
    {"smiles": "O=C1CN=C(c2ccccc2Cl)c2cc([N+](=O)[O-])ccc2N1", "note": "[CZP, Clonazepam]", "values": [
      {"measurement": "half life", "setting": "in vivo", "value": "30 to 40", "unit": "h"}
    ]},
    {"smiles": "Nc1nnc(-c2cccc(Cl)c2Cl)c(N)n1", "note": "[LTG, Lamotrigine]", "values": [
      {"measurement": "bioavailability", "setting": "orally administered", "value": "about 98%"}
    ]}
  ]
}
